## Antibody variant affinities, Ab-14 light chain, assay 1

Antigen: PDVDLGDISGINAS, a 14-residue peptide of the SARS-CoV-2 spike HR2 region.

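Variants in AAYL50 differ from the parent at up to three CDR positions; double and triple changes were sampled at random. In AlphaSeq, yeast of one mating type display the scFv and yeast of the other type display the target. After mating in shaken culture at 30 °C for 16 h, diploids were selected and their barcode pairs sequenced. Scores were corrected for input abundance and mapped to Kd with protein pairs of known affinity run in the same pool. The assay was run in three technical replicates.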

Each scFv is VH, a 15-residue (Gly4Ser)3 linker, VL, as in the parent Ab-14, and differs from it in the CDRs of the light chain only.
VH: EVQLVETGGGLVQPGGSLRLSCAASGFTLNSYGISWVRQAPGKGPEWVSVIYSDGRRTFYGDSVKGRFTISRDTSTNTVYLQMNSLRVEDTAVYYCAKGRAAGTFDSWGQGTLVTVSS
VL: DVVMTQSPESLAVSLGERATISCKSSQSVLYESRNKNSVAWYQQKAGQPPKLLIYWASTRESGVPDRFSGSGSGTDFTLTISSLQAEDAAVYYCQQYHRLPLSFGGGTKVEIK

Changes read parent residue, position, new residue, counted from the first residue of the VL shown.
The read-out is the apparent dissociation constant on a log10 scale (nM): the lower, the stronger.
"nd" marks a missing value. The strain was present, yet no cells mated with the target were sequenced in that replicate, which points to weak or no binding.

{"changes": "S25I/N35Y/L100F", "log10 Kd, replicates": "0.50 / 0.71 / 0.62", "control signals": "1 of 9 (3.48)"}
{"changes": "Y31L/S33F/L102H", "log10 Kd, replicates": "nd / nd / nd", "control signals": "0 of 9"}
{"changes": "E32I/Y97E", "log10 Kd, replicates": "2.80 / 1.89 / 3.39", "control signals": "1 of 9 (3.17)"}
{"changes": "K24D/Y97F/L100P", "log10 Kd, replicates": "nd / nd / nd", "control signals": "2 of 9 (3.45)"}
{"changes": "S28V/R99V/P101M", "log10 Kd, replicates": "2.95 / 2.75 / 3.45", "control signals": "1 of 9 (4.12)"}
{"changes": "V29I/N35K/S38C", "log10 Kd, replicates": "2.52 / 2.60 / 2.75", "control signals": "2 of 9 (4.53)"}
{"changes": "E61S/Q95N/Y97W", "log10 Kd, replicates": "1.46 / 1.42 / 1.37", "control signals": "1 of 9 (4.69)"}
{"changes": "V39T/A57C", "log10 Kd, replicates": "nd / nd / nd", "control signals": "0 of 9"}
{"changes": "A40D/S103E", "log10 Kd, replicates": "nd / nd / nd", "control signals": "0 of 9"}
{"changes": "K24M/S38R/P101Y", "log10 Kd, replicates": "nd / nd / 4.55", "control signals": "2 of 9 (4.16)"}
{"changes": "S26N/A40C/S62V", "log10 Kd, replicates": "nd / nd / 4.56", "control signals": "0 of 9"}
{"changes": "E32P/T59K", "log10 Kd, replicates": "1.74 / 1.70 / 2.04", "control signals": "2 of 9 (4.01)"}
{"changes": "V39G/E61N", "log10 Kd, replicates": "nd / nd / nd", "control signals": "0 of 9"}
{"changes": "S26T/E32N", "log10 Kd, replicates": "1.32 / 1.29 / 1.31", "control signals": "0 of 9"}
{"changes": "S26P/L30G/S62K", "log10 Kd, replicates": "0.31 / 0.70 / 0.60", "control signals": "3 of 9 (5.34)"}
{"changes": "A57G/Q95C/Q96E", "log10 Kd, replicates": "5.27 / nd / 4.30", "control signals": "1 of 9 (4.18)"}
{"changes": "R34E/K36L/Q96I", "log10 Kd, replicates": "nd / 4.09 / nd", "control signals": "1 of 9 (3.50)"}
{"changes": "N35A/L102H/S103R", "log10 Kd, replicates": "1.16 / 1.59 / 1.90", "control signals": "1 of 9 (3.60)"}
{"changes": "Y31H/S33M/A40V", "log10 Kd, replicates": "2.72 / 2.36 / 3.13", "control signals": "1 of 9 (3.19)"}
{"changes": "E32C/A40E/L102F", "log10 Kd, replicates": "nd / nd / nd", "control signals": "0 of 9"}
{"changes": "K24D/A57K/T59G", "log10 Kd, replicates": "nd / nd / nd", "control signals": "3 of 9 (4.48)"}
{"changes": "L30Y/S58W/S62K", "log10 Kd, replicates": "nd / nd / nd", "control signals": "1 of 9 (2.15)"}
{"changes": "S25H/N35F/P101T", "log10 Kd, replicates": "nd / nd / nd", "control signals": "0 of 9"}
{"changes": "N37H/R60H/Y97K", "log10 Kd, replicates": "nd / nd / nd", "control signals": "3 of 9 (3.05)"}
{"changes": "Q27R/N37G/R60P", "log10 Kd, replicates": "nd / 2.36 / nd", "control signals": "0 of 9"}
{"changes": "S26I/E61I/L102N", "log10 Kd, replicates": "2.61 / nd / nd", "control signals": "1 of 9 (2.89)"}
{"changes": "K24M/Q27V", "log10 Kd, replicates": "1.02 / 1.11 / 1.24", "control signals": "2 of 9 (3.77)"}
{"changes": "V29N/R60F/E61P", "log10 Kd, replicates": "3.86 / nd / 5.69", "control signals": "3 of 9 (4.58)"}
{"changes": "Q27C/R60M/H98Q", "log10 Kd, replicates": "nd / nd / nd", "control signals": "0 of 9"}
{"changes": "Y31S/E61T", "log10 Kd, replicates": "1.54 / 1.57 / 1.74", "control signals": "2 of 9 (4.11)"}
{"changes": "S38I/L100P/P101F", "log10 Kd, replicates": "nd / nd / nd", "control signals": "0 of 9"}
{"changes": "H98A", "log10 Kd, replicates": "1.77 / 1.73 / 1.82", "control signals": "2 of 9 (3.87)"}

Top 5 of the variants detected in all replicates, tightest first:

changes,"log10 Kd, replicates",control signals
S26P/L30G/S62K,0.31 / 0.70 / 0.60,3 of 9 (5.34)
S25I/N35Y/L100F,0.50 / 0.71 / 0.62,1 of 9 (3.48)
K24M/Q27V,1.02 / 1.11 / 1.24,2 of 9 (3.77)
S26T/E32N,1.32 / 1.29 / 1.31,0 of 9
E61S/Q95N/Y97W,1.46 / 1.42 / 1.37,1 of 9 (4.69)

Parent in this assay: reference entry 0.65, copy in this library 1.68.
As a blank, each scFv also met three strains without target: over library AAYL50, 18% of these pairings were detected, typically at 4.19 and seldom below 2.99. For each scFv, signals with the empty controls are counted beside the result, with their mean in brackets.

The measurements come from Engelhart et al. 2022 (doi:10.1038/s41597-022-01779-4) through the FLAb antibody collection.